Consider one molecule from patent US20030219858A1 (MCGILL UNIVERSITY, published 2003).

The target in the test is T1, human heteromultimeric ASIC-2S.2 channel (human ASIC2A + human ASIC3) (human, UniProt Q16515 1-512; Q9UHC3 1-531).
T1 chain 1: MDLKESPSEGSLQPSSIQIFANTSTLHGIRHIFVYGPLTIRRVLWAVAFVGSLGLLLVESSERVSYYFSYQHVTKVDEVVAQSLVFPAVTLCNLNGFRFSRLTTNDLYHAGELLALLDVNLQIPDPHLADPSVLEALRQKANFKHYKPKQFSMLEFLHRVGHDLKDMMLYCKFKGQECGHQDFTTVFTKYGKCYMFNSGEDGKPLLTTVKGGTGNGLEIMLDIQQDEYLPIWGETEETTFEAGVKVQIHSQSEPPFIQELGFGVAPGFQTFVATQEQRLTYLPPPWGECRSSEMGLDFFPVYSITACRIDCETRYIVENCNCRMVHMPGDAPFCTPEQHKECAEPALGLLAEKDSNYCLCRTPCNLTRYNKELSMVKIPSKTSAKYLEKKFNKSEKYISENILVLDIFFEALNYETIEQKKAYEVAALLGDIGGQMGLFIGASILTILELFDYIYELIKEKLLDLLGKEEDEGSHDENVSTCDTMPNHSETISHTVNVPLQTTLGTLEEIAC
T1 chain 2: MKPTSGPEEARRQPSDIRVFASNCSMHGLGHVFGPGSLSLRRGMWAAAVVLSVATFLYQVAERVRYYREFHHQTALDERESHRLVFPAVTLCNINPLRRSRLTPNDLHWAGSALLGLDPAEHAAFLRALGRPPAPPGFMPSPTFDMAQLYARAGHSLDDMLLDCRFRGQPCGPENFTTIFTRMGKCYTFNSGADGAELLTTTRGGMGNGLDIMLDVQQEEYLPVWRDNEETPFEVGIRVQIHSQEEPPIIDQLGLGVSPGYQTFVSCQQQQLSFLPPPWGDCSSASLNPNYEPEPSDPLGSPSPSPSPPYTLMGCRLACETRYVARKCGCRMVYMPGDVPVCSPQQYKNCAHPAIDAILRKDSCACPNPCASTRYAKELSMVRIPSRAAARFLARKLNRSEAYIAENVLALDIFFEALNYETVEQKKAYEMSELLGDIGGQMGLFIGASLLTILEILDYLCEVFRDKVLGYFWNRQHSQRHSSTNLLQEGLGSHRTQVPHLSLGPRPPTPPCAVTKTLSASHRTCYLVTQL
Nature of the test: cell-based or functional assay.

Consider FMRF (C-terminal amide) [FMRFamide], for which the “EC50 of potentiation of currents induced by pH 4” value amounted to 13 µM.
